This is an account of results in patent US20220332839A1, “USE OF PRG4 TO TREAT CANCER” (Lubris LLC, priority 2019, published 2022).

The experiment addresses CD44-IgG1Fc (R & D systems), recombinant human CD44 chimeric protein (human) (UniProt P16070). The experiment is described as follows: competition ELISA, CD44-IgG1Fc coated at 1 µg/mL, rhPRG4 at 5 µg/mL with HMW HA or MMW HA (competitor, a polysaccharide), detection with Mab 9G3. (In general: ELISA stands for enzyme-linked immunosorbent assay.)

As to “recombinant human proteoglycan 4 (rhPRG4), full-length product produced by CHO-M cells (from UniProt Q92954 25-1404) (ligand)”, the percent reduction of rhPRG4 binding to CD44 in an excess of HMW or MMW HA worked out at 50%.
